Target: Replicase polyprotein 1ab (Severe acute respiratory syndrome coronavirus 2, UniProt P0DTD1)
Assay: Inhibition of SARS-CoV-2 papain-like protease

COC(=O)/C=C/C(=O)NNC(=O)CCc1ccccc1C(=O)N[C@H](C)c1cccc2ccccc12
IC50: 90 nM

From ChEMBL document CHEMBL6092147, “Design of inhibitors of SARS-CoV-2 papain-like protease deriving from GRL0617: Structure-activity relationships” (Bioorg Med Chem, 2024)
